# scFv variants of Ab-14 (light chain) against a SARS-CoV-2 spike peptide

Source: Li et al. 2023 (doi:10.1038/s41467-023-39022-2), MIT Lincoln Laboratory and A-Alpha Bio; data file from the FLAb repository.

All variants were tested on one target, the spike HR2 peptide PDVDLGDISGINAS (SARS-CoV-2).

Parent scFv Ab-14: VH joined to VL by the linker GGGGSGGGGSGGGGS. Changes lie in the light chain CDRs alone.
VH: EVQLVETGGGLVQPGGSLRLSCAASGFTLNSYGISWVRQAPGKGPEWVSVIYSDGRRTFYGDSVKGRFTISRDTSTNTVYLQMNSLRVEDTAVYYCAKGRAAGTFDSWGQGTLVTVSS
VL: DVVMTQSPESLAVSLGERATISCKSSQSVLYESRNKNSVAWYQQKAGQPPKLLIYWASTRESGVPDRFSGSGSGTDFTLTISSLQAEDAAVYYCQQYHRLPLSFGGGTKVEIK

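The starting antibody came from a phage panning campaign against this peptide. These sequences belong to a second round, designed from the earlier measurements on random variants of the parent. Their group label is 14L_GP_Gen (GP: Gaussian process model; Gen: genetic algorithm; a sequence that several methods proposed may carry one label only). AlphaSeq pools MATa yeast showing the antibodies with MATalpha yeast showing the peptide. Pairs that bind mate more often; barcode pairs of the diploids are counted by sequencing. The ratio of observed to expected reads was calibrated, replicate by replicate, on BCL2-family standards whose Kd was known from biolayer interferometry. Mating was done six times.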

Changes read parent residue, position, new residue, counted from the first residue of the VL shown.
The read-out is the apparent dissociation constant on a log10 scale (nM): the lower, the stronger.
"n.d." marks a missing value. The strain was present, yet no cells mated with the target were sequenced in that replicate, which points to weak or no binding.
The range of this assay differs from that of the first round, and the authors advise against merging the two.
In the paper, a design with two or fewer of six values counts as a poor binder.
Empty control strains, which show no peptide, gave a signal in 4% of pairings with all light chain designs; the median was 2.64 and 95% of these signals were weaker than 1.59. No background was subtracted. The control count says in how many pairings with the empty strains this scFv gave a signal, with their mean in brackets.

changes | replicates, log10 nM | empty controls
S25L+S26Q+V29W+L30W+W56N | 1.18 / 1.03 / 1.14 / 0.72 / 1.07 / 1.27 | 1/18 (2.77)
S25L+S26M+L30M+W56N | 0.37 / 0.08 / 0.08 / 0.13 / 0.25 / 0.31 | 0/18
S25L+V29Q+K36P+W56N | 0.17 / -0.09 / -0.17 / -0.34 / -0.37 / -0.17 | 1/18 (2.63)
S25L+N35W+S38N+W56N | 0.23 / 0.18 / 0.07 / 0.16 / 0.23 / 0.35 | 0/18
S25L+V29E+N35L+W56N | 0.28 / 0.15 / -0.06 / 0.09 / 0.05 / 0.15 | 2/18 (3.04)
S25L+Y31M+W56S+E61S | 0.42 / 0.65 / 0.29 / 0.66 / 0.39 / 0.70 | 1/18 (1.92)
S25L+N35V+W56D | -0.39 / -0.45 / -0.50 / -0.58 / -0.52 / -0.58 | 2/18 (2.68)
S25V+W56E+S103M | 0.49 / 0.30 / 0.21 / 0.01 / 0.19 / 0.29 | 2/18 (3.32)
S25L+V29E+W56Q+E61M | 0.08 / -0.07 / -0.07 / -0.01 / 0.02 / -0.08 | 0/18
S25L+S26Q+W56N+E61M+Q96D | 0.16 / -0.24 / 0.01 / -0.47 / -0.29 / -0.05 | 2/18 (3.37)
S25V+S26P+V29E+W56N | -0.34 / -0.38 / -0.19 / -0.43 / -0.24 / 0.10 | 0/18
S25L+S26M+V29E+W56G | -0.27 / -0.07 / -0.22 / -0.49 / -0.27 / -0.23 | 1/18 (3.61)
S25L+S38N+W56Q+T59Q | -0.44 / -0.51 / -0.51 / -0.68 / -0.56 / -0.48 | 1/18 (2.65)
S25L+S38N+W56D+S62Q | 0.29 / 0.41 / -0.30 / 0.13 / 0.38 / 0.55 | 1/18 (3.12)
S25L+S26E+V29Q+W56H | -0.09 / -0.02 / -0.32 / -0.04 / -0.04 / -0.15 | 0/18
S25V+S26Q+V29H+W56N | 0.14 / 0.16 / -0.02 / -0.04 / 0.07 / -0.03 | 0/18
S25M+S26Q+V29Q+W56N+E61L | -0.21 / -0.19 / -0.23 / -0.40 / -0.46 / -0.07 | 0/18
S25L+S26Y+W56N+Q96D | 0.42 / 0.39 / 0.19 / 0.00 / 0.31 / 0.55 | 0/18
S25V+S33E+W56E+T59Q | n.d. / 0.74 / n.d. / n.d. / n.d. / n.d. | 0/18
S25L+V29E+L30M+W56N | -0.33 / -0.63 / -0.35 / -0.63 / -0.34 / -0.30 | 1/18 (1.58)
S26Q+V29W+W56N+T59Q | 0.17 / -0.08 / -0.32 / 0.05 / 0.05 / 0.15 | 0/18
S25L+L30D+S38N+W56E | -0.46 / -0.67 / -0.57 / -1.29 / -0.82 / -0.40 | 0/18
S25L+S33Q+W56N+T59Q+E61L | 0.11 / -0.09 / -0.21 / 0.16 / 0.18 / 0.14 | 1/18 (2.93)
S25L+S26E+V29N+W56N | 0.36 / 0.19 / 0.09 / 0.05 / 0.19 / 0.30 | 1/18 (1.99)
S25V+W56N+S62K | -0.26 / -0.47 / -0.44 / -0.43 / -0.47 / -0.37 | 2/18 (2.54)
S25I+S26E+V29E+W56N | 0.09 / 0.21 / 0.14 / 0.14 / 0.00 / 0.43 | 0/18
S25V+V29E+W56N+S62D | 0.14 / 0.08 / 0.07 / 0.02 / 0.11 / 0.17 | 1/18 (3.44)
S25V+W56E+T59H | 0.20 / 0.08 / -0.03 / -0.36 / -0.17 / -0.19 | 5/18 (3.02)
S25F+V29W+S38N+W56N | -0.26 / -0.29 / -0.53 / -0.53 / -0.49 / -0.26 | 3/18 (2.78)
S25V+Q27P+V29H+W56D | 0.00 / -0.26 / 0.15 / -0.31 / -0.06 / 0.10 | 2/18 (2.61)
S25L+Q27G+V29H+W56G | -0.10 / -0.29 / -0.31 / -0.21 / -0.20 / 0.04 | 2/18 (2.05)
S25V+V29W+S38A+W56E+T59Q | -0.15 / -0.28 / -0.53 / -0.48 / -0.36 / -0.11 | 0/18
S25V+V29W+S33Q+W56N | 0.06 / -0.19 / -0.23 / -0.27 / -0.08 / -0.14 | 2/18 (3.28)
S25L+V29W+K36F+W56N | 0.48 / 0.54 / 0.41 / 0.04 / 0.44 / 0.66 | 0/18
S25F+S26E+S38A+W56N+T59Q | -0.13 / -0.31 / -0.28 / -0.33 / -0.39 / -0.23 | 3/18 (2.77)